# Shown are results outside the selection of hits, which stands elsewhere.
# Tested on: Escherichia coli K-12 BW25113
# Assay: relative growth (OD600 normalised to plate interquartile mean) (fraction); higher = less growth inhibition, active = 0.2 or less
# Conditions: 50 µM; LB; incubation time: overnight (16-24 h)
# 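Further: Wild-type cells incubated without shaking, value is the mean of two biological replicates.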
row,SMILES,relative growth
1,CC[C@H](C)[C@H](NC(=O)[C@H](CCC(=O)O)NC(=O)[C@H](CCC(=O)O)NC(=O)[C@H](Cc1ccccc1)NC(=O)[C@H](CC(=O)O)NC(=O)CNC(=O)[C@H](CC(N)=O)NC(=O)CNC(=O)CNC(=O)CNC(=O)CNC(=O)[C@@H]1CCCN1C(=O)[C@H](CCCNC(=N)N)NC(=O)[C@@H]1CCCN1C(=O)[C@H](N)Cc1ccccc1)C(=O)N1CCC[C@H]1C(=O)N[C@@H](CCC(=O)O)C(=O)N[C@@H](CCC(=O)O)C(=O)N[C@@H](Cc1ccc(O)cc1)C(=O)N[C@@H](CC(C)C)C(=O)O,inactive: 0.992

# — the supplement of paper PMC9446081
